Tested on: cIAP2−/− and control mice
Assay: Survival of mice after treatment with platelet-activating factor (PAF)
Type: in vivo, mouse

Substance: platelet-activating factor [PAF]
- Survival (cIAP2+/+ mice, PAF 1 μg/kg i.v.): 6/6
- Survival (cIAP2+/+ mice, PAF 2 μg/kg i.v.): 6/6
- Survival (cIAP2+/+ mice, PAF 2.5 μg/kg i.v.): 6/6
- Survival (cIAP2+/+ mice, PAF 3 μg/kg i.v.): 0/6
- Survival (cIAP2+/+ mice, PAF 5 μg/kg i.v.): 0/6
- Survival (cIAP−/− mice, PAF 1 μg/kg i.v.): 6/6
- Survival (cIAP−/− mice, PAF 2 μg/kg i.v.): 6/6
- Survival (cIAP−/− mice, PAF 2.5 μg/kg i.v.): 6/6
- Survival (cIAP−/− mice, PAF 3 μg/kg i.v.): 0/6
- Survival (cIAP−/− mice, PAF 5 μg/kg i.v.): 0/6
